This is an account of results in PubChem BioAssay AID1135 (Sanford-Burnham Center for Chemical Genomics, 2008).

The chains behind the UniProt entries cited, without tags or fusion partners.
UniProt P05186, whole entry: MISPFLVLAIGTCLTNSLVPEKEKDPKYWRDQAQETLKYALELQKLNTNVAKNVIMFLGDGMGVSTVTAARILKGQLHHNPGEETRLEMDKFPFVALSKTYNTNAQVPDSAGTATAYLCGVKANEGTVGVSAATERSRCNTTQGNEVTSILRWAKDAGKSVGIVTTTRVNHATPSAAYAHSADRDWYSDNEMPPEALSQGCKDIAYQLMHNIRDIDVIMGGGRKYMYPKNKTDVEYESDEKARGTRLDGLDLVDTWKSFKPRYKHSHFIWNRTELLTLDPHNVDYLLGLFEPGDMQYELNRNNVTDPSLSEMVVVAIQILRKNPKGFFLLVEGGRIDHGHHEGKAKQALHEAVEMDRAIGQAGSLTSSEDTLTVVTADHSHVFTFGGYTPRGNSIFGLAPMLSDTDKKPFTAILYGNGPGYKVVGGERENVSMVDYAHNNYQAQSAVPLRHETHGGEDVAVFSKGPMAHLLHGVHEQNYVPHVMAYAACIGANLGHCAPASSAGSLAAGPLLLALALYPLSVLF

The list shows a part of the results, in another mix than the full data. Activity calls are given as the source filed them.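 The calls were made as follows: active = over 50% inhibition of tissue-nonspecific alkaline phosphatase at 20 µM in the single-dose screen; inactive = the rest.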

For the test, the target named is Alkaline phosphatase, tissue-nonspecific isozyme (Homo sapiens) (UniProt P05186). Briefly: human TNAP enzyme inhibitors, primary screen, biochemical, luminescent, high phosphate acceptor level, uHTS (AID 1135).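 Also: plate controls were DMSO wells for no effect and EDTA-quenched wells as full inhibition for full effect.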 Conditions: purified TNAP, CDP-star luminescence, 1 M DEA; at 20 µM; active compounds read high.
Take `Cc1cc(C)cc(OP(C)(=O)Nc2ccc(C)cc2C)c1` (stereo not drawn): the inhibition (in general, the relative decrease from the control value, in per cent) is inactive: 1.5%.
For `CCOC(=O)c1ccc(NP(C)(=O)Oc2cc(C)cc(C)c2)cc1` (stereo not drawn), the inhibition is inactive: -2.2%.
The value for `Cc1cc(C)cc(OP(C)(=O)Nc2ccccn2)c1` (stereo not drawn) was inactive: -3%.
As for `Cc1ccc(C)c(NP(C)(=O)Oc2ccccc2)c1` (stereo not drawn), the inhibition was inactive: -1.5%.
The value for `CC1=NCCc2c1[nH]c1ccccc21.O=[N+]([O-])c1cc([N+](=O)[O-])c(O)c([N+](=O)[O-])c1` was inactive: 5.3%; that for `CN1CCCCC1COC(=O)C1(O)c2ccccc2CCc2ccccc21` (stereo not drawn) was inactive: 1.4%; that for `COc1ccccc1OP(C)(=O)Nc1c(C)cccc1C` (stereo not drawn) was inactive: 1.5%.
Then `CP(=O)(Nc1ccc(SC(F)(F)F)cc1)Oc1ccccc1` (stereo not drawn), with inactive: -1.4%; and `CCCOc1ccc(NP(C)(=O)Oc2ccc(Cl)cc2)cc1` (stereo not drawn), with inactive: -2%.
Then `O=[N+]([O-])c1cc([N+](=O)[O-])c(-n2nnc3ccccc32)c([N+](=O)[O-])c1`, with inactive: -0.3%; and `Cc1nc2ccc3ccccc3c2s1.O=[N+]([O-])c1cc([N+](=O)[O-])c(O)c([N+](=O)[O-])c1`, with inactive: 3.4%.
With `Cc1cccc(C)c1OP(C)(=O)Nc1ccc(SC(F)(F)F)cc1` (stereo not drawn), the inhibition was inactive: 0.3%.
The value for `CP(=O)(Oc1ccccc1)OC(c1ccccc1)C(F)(F)F` (stereo not drawn) was inactive: -0.4%; that for `CP(=O)(NC(=O)Nc1ccccc1)Oc1ccccc1` (stereo not drawn) was inactive: -8%.
For the compound `Cc1cc(C)cc(OP(C)(=O)Nc2ccc(SC(F)(F)F)cc2)c1` (stereo not drawn), the inhibition is inactive: -1.1%.
For `CCOP(C)(=S)SCC(=O)NC(C)C(=O)O` (stereo not drawn), the inhibition was inactive: -3.3%.
As to `CCOC(=O)c1ccc(NP(C)(=O)Oc2ccc(OC)cc2)cc1` (stereo not drawn), the inhibition was inactive: -1.3%.
Take `CP(=O)(Nc1ccccn1)Oc1ccc(Cl)cc1` (stereo not drawn): the inhibition is inactive: -4.6%.
For the compound `CP(=S)(Nn1cnnc1)Oc1ccccc1` (stereo not drawn), the inhibition is inactive: -2.1%.
The value for `COc1ccccc1OP(C)(=O)Nc1ccccc1` (stereo not drawn) was inactive: -5.7%.
Then `CP(=O)(Nc1ccccc1Br)Oc1ccccc1` (stereo not drawn), with inactive: -3.3%; and `CC(C)(C)c1ccc(OP(C)(=O)Nc2ccc(SC(F)(F)F)cc2)cc1` (stereo not drawn), with inactive: -4.4%.
The value for `Cc1cccc(C)c1OP(C)(N)=O` (stereo not drawn) was inactive: -4.9%; that for `O=[N+]([O-])c1ccc2c(c1)C=Nc1ccccc1O2` was inactive: 16.7%; that for `CCOC(=O)c1ccc(NP(C)(=O)Oc2ccccc2)cc1` (stereo not drawn) was inactive: -3.9%.
For the compound `COc1ccccc1OP(C)(=O)Nc1ccc(C)cc1` (stereo not drawn), the inhibition is inactive: -2.5%.
Then `Cc1ccc(NP(C)(=O)Oc2ccccc2)c(C)c1` (stereo not drawn), with inactive: -4.7%; and `COc1ccccc1OP(C)(=O)Nc1cc(Cl)ccc1C` (stereo not drawn), with inactive: 1.6%.
